{"source": "ChEMBL document CHEMBL2046398", "about": "“Optimization of (2,3-dihydro-1-benzofuran-3-yl)acetic acids: discovery of a non-free fatty acid-like, highly bioavailable G protein-coupled receptor 40/free fatty acid receptor 1 agonist as a glucose-dependent insulinotropic agent” (J Med Chem, 2012)", "key": {"[1]": {"tested_on": "Plasma", "test": "Metabolic stability in rat plasma assessed as unchanged compound level", "assay_type": "ADME, cell-free"}, "[2]": {"tested_on": "Plasma", "test": "Metabolic stability in plasma dog assessed as unchanged compound level", "assay_type": "ADME, cell-free, Canis lupus familiaris"}}, "data": [{"smiles": "Cc1cc(OCCCS(C)(=O)=O)cc(C)c1-c1cccc([14CH2]Oc2ccc3c(c2)OC[C@H]3CC(=O)O)c1", "values": [{"measurement": "Stability", "setting": "[1]", "result": "Stable"}, {"measurement": "Stability", "setting": "[2]", "result": "Stable"}]}]}
